Our source for the EC50 values is patent publication US20150297746A1 (AstraZeneca / MedImmune, published 2015).

Test [1] has as its target T1, CD25 (cell surface, on Karpas299 and SU-DHL-1 cells) (human, UniProt P01589 22-272).
T1 construct: whole, on cells; also called surface CD25
T1 sequence (looked up): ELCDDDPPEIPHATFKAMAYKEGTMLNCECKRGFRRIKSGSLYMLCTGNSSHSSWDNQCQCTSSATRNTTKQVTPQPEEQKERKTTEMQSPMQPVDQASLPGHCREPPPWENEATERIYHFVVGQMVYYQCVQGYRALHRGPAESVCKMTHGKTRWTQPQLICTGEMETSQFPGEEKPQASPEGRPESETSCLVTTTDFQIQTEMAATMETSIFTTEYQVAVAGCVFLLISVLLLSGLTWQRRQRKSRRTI
Nature of the test: flow cytometry on SU-DHL-1 cells (CD25+), average of four experiments. Here is the method: (§1) Karpas299 and SU-DHL-1 anaplastic large cell lymphoma (ALCL)-derived cell lines have been previously reported to express CD25 (2,3). To confirm their expression profile, CD25 surface expression was analyzed by flow cytometry.
(§2) Surface CD25 expression on Karpas and SU-DHL-1 was determined by flow cytometry. Graphs represent the average of three (Karpas299) or four independent experiments (SU-DHL-1). EC₅₀ values are reported in ng/ml.
On the technique in general: Flow cytometry measures light scatter and fluorescence of single cells or particles in a stream.

For test [2], the target named is T1, CD25 (cell surface, on Karpas299 and …). Nature of the test: flow cytometry on Karpas299 cells (CD25+), average of three experiments. As to the method:
as §1, §2

B1: Simulect (antibody, V domains shown)
VH: QLQQSGTVLARPGASVKMSCKASGYSFTRYWMHWIKQRPGQGLEWIGAIYPGNSDTSYNQKFEGKAKLTAVTSASTAYMELSSLTHEDSAVYYCSRDYGYYFDFWGQGTTLTVS
VL: QIVSTQSPAIMSASPGEKVTMTCSASSSRSYMQWYQQKPGTSPKRWIYDTSKLASGVPARFSGSGSGTSYSLTISSMEAEDAATYYCHQRSSYTFGGGTKLEIK
notes: also called Antibody A; anti-CD25 antibody
For orientation: EC50 means the midpoint of the concentration-response curve. Read a high EC50 as a less potent agent. On to B1, for which the EC50 in test [1] turned out to be 0.0667 µg/mL; in test [2] it was 0.0451 µg/mL.
